# Tested on: human 20S proteasome (H20S), chymotrypsin-like β5 activity
# Assay: Human 20S proteasome kinetic assay (chymotrypsin-like β5 activity)
# Format: biochemical
# Conditions: ratio of IC50 H20S to IC50 PfSUB1
# Procedure: The fluorescent Proteasome substrate LLVY-R110 (ex: 490 nm, Em:525 nm) (#MAK172, Sigma-Aldrich) was used to measure the chymotrypsin-like activity (β5) of the human 20S proteasome and was prepared according to the activity assay kit instructions. Cleavage of this peptide generated intense green fluorescence due to the R110 group and was monitored at 520-530 nm with excitation at 480-500 nm. The purified human 20S proteasome (BML-PW8720-0050, EnzoSciences), stored at 1mg/ml in 20 mM Tris-HCl pH 7.2, 1mM EDTA, 1mM DTT 1mM NaN3, 50% glycerol was diluted in TRIS-buffered saline (TBS, pH 7.4) to an intermediate concentration of 0.44 μM. […] The reactions were performed in white 96-well fluorescent microtiter-plate format (Nunc). The Substrate solution was added first (100 μl), followed by 1 μl of the inhibitor (50 μM intermediate stock) and 1 μl of the H20S proteasome at 0.44 μM. The IC50s were determined for a selection of potent PfSUB1 inhibitors. After sequential dilution of the inhibitors in 100% DMSO, 1 μl of each dilution was used in a 100 μl reaction containing the fluorescent substrate. The reaction was initiated by the addition of 1 μl of the 20S proteasome intermediate stock solution. The fluorescence increase was monitored using a SpectraMax M5e plate reader and SoftMax Pro-6.3 software Measure activity on a plate reader (ex: 490 nm, Em: 525 nm) with the photomultiplier tube (PMT) set to medium with readings every 3 min for one hour. All measurements were done in duplicate. The progress curves were plotted within GraphPad Prism 9.5.0.
row,Structure (SMILES),S (H20S vs PfSUB1 inhibition)
1,"CC[C@H](C)[C@H](NC(=O)[C@@H](NC(=O)c1ccc2ccccc2n1)C1CCCC1)C(=O)NCC(=O)N[C@@H](C)B(O)O [3a, ((3S,6S,12R)-6-((S)-sec-butyl)-3-cyclopentyl-1,4,7,10-tetraoxo-1-(quinolin-2-yl)-2,5,8,11-tetraazatridecan-12-yl)boronic acid]",0.6
2,"CC[C@H](C)[C@H](NC(=O)[C@@H](NC(=O)c1cccc(-c2ccccc2)n1)C1CCCC1)C(=O)NCC(=O)N[C@@H](C)B(O)O [3b, ((3S,6S,12R)-6-((S)-sec-butyl)-3-cyclopentyl-1,4,7,10-tetraoxo-1-(6-phenylpyridin-2-yl)-2,5,8,11-tetraazatridecan-12-yl)boronic acid]",0.75
3,"CC[C@H](C)[C@H](NC(=O)[C@@H](NC(=O)c1ccc2ccccc2n1)C1CCCC1)C(=O)NCC(=O)N[C@H]1CCC(=O)OB1O [4a, N-((S)-1-cyclopentyl-2-(((2S,3S)-1-((2-(((R)-2-hydroxy-6-oxo-1,2-oxaborinan-3-yl)amino)-2-oxoethyl)amino)-3-methyl-1-oxopentan-2-yl)amino)-2-oxoethyl) quinoline-2-carboxamide]",11.3
4,"CC[C@H](C)[C@H](NC(=O)[C@@H](NC(=O)c1cccc(-c2ccccc2)n1)C1CCCC1)C(=O)NCC(=O)N[C@H]1CCC(=O)OB1O [4b, N-((S)-1-cyclopentyl-2-(((2S,3S)-1-((2-(((R)-2-hydroxy-6-oxo-1,2-oxaborinan-3-yl)amino)-2-oxoethyl)amino)-3-methyl-1-oxopentan-2-yl)amino)-2-oxoethyl)-6-phenylpicolinamide]",12.3
5,"CC[C@H](C)[C@H](NC(=O)[C@@H](NC(=O)c1cc(C)cc(C)c1)C1CCCC1)C(=O)NCC(=O)N[C@H]1CCC(=O)OB1O [4c, N-((S)-1-cyclopentyl-2-(((2S,3S)-1-((2-(((R)-2-hydroxy-6-oxo-1,2-oxaborinan-3-yl)amino)-2-oxoethyl)amino)-3-methyl-1-oxopentan-2-yl)amino)-2-oxoethyl)-3,5-dimethylbenzamide]",65.4

# From article PMC7616463, “Peptidic boronic acid Plasmodium falciparum SUB1 inhibitors with improved selectivity over human proteasome” (Journal of medicinal chemistry, 2024)
